# Biological target: 5-hydroxytryptamine receptor 4 (Rattus norvegicus, UniProt Q62758)
# Protein sequences, listed by entry. Tags and fused reporters are not part of them. Lines headed by an entry give the natural chain unless they say otherwise; changes in a name come on top.
# UniProt Q62758: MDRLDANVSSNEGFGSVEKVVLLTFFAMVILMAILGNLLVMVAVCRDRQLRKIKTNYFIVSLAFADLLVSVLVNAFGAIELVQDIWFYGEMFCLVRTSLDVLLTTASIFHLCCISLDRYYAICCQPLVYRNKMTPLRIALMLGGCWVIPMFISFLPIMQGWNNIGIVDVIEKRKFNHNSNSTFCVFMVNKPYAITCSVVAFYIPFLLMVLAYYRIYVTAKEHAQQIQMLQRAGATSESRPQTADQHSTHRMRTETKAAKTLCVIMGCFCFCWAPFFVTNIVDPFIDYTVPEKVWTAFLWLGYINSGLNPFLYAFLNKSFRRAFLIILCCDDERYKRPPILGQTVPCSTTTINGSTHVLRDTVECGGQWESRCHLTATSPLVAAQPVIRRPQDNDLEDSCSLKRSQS
smiles,measurement,value
NCCc1c[nH]c2ccc(O)cc12 [[3H]-5-HT],Ki,38.9 nM
